Reference: patent US11077196B2, “Abuse-deterrent pharmaceutical composition” (priority 2016, dated 2021)

Tested on: laccase
Settings: 1000 mg L−1 opioid, 10 Units laccase per ml, NaPi Buffer pH 7 50 mM

CN1CC[C@]23c4c5ccc(O)c4O[C@H]2C(=O)CC[C@H]3[C@H]1C5 [hydromorphone, 4,5[alpha]-epoxy-3-hydroxy-17-methyl-6-morphinanone]
oxygen concentration / laccase activity on the opioid: showed laccase activity
